Results published in patent US20180030537A1, “PUMA, A PRO-APOPTOTIC GENE, AS A NOVEL MOLECULAR BIOMARKER FOR TNFALPHA-INDUCED HUMAN ISLET DAMAGE” (CITY OF HOPE, priority 2010, published 2018).

Test system: human islets
Experiment: Cytokine stimulation of single human islets, mRNA quantification
Assay type: cell-based
Method: FIGS. 8A-L. TNF-α induces PUMA expression in human islets and acinar cells. FIG. 8A) TNF-α induced Bcl-2 family mRNA in islets. Single islets were stimulated with or without 50 ng/ml TNF-α for 16 hours. Each dot indicates the result of one islet lot tested in hextuplicate. The tests were performed using 4 different human islet lots. Bars indicate the mean of 4 lots. Each gene expression was normalized by ACTB (a gene encoding β actin), and the fold increase was calculated by dividing TNF-α treated islets by control islets (*p<0.01, n=4). […] FIGS. 8B-D) PUMA (FIG. 8B), IL-8 (FIG. 8C) and TNF-α (FIG. 8D) expression from single human islets (n=6) stimulated with 0 (open circles), 1 (solid triangles), 5 (solid squares) and 50 ng/ml (solid circles) TNF-α for 0, 1, 4, 16 hours in 3 independent cases. Dose dependent expression of (FIG. 8E) PUMA, (FIG. 8F) IL-8 and (FIG. 8G) TNF-α in human islet at the 4 hour time point (n=3). The PUMA expression in human islets was elevated by TNF-α as early as one hour, increased during the next 4 hours, and maintained at the similar level for 16 hours. […] (FIG. 8H) PUMA, (FIG. 8I) IL-8 and (FIG. 8J) TNF-α mRNA expression in acinar cells, in triplicate, stimulated with 0 (open circles), 1 (solid triangles), 5 (solid squares) and 50 (solid circles) ng/ml TNF-α for 0, 1, 4, 16 hours. Representative data from two independent cases is shown. (FIG. 8K) PUMA and (FIG. 8L) IL-8 expression in human islets stimulated with or without TNF-α (1, 5, 50 ng/ml) and/or IFNγ (10, 100, 1000 U/ml) for 4 hours. When combined with TNF-α, IFNγ strongly augmented TNF-α mediated PUMA expression. PUMA expression is highest for TNF-α at 50 ng/ml+IFNγ at 1000 U/ml. […] All data are presented as a mean±standard error. […] However, unlike in the islets, the expression of PUMA and IL-8 reached to the peak level by 4 hours and decreased to the basal level by 16 hours.
Human islets and acinar cells isolated for research use were obtained from the Southern California Islet Cell Resources (SC-ICR) Center, Beckman Research Institute of the City of Hope (Duarte, Calif.) 1 to 3 days after isolation. The donor age ranged from 18 to 67 (48±14) years and included both sexes. Islet preparations with >70% purity and >90% viability were used. The use of human islets and acinar cells in this study was approved by the Institutional Review Board of the City of Hope. For mRNA experiments, islets between 150 μm to 300 μm in diameter (medium size islet) were handpicked in hexuplicate by experienced personnel under a dissection microscope without staining. […]

Substance: TNF-α: recombinant human (or rat, for INS-1) TNF-α, R&D Systems; cytokine stimulus
- increases in other Bcl-2 family mRNAs (50 ng/mL, 16 hours, n=4, FIG. 8A): less than 2 fold
- PUMA mRNA fold increase vs non-stimulated controls (50 ng/mL, 16 hours, n=4 islet lots, FIG. 8A): 1.9-4.7 fold
- IL-8 mRNA expression in human islets (TNF-α 1, 5, 50 ng/ml and/or IFNγ 10, 100, 1000 U/ml, FIG. 8C, 8F, 8L): increased
- endogenous TNF mRNA expression in human islets (TNF-α 1, 5, 50 ng/ml up to 16 hours, FIG. 8D, 8G): induce TNF mRNA expression
